# Reference: publication PMC7029632, “Routing Nanomolar Protein Cargoes to Lipid Raft‐Mediated/Caveolar Endocytosis through a Ganglioside GM1‐Specific Recognition Tag” (Advanced Science, 2020)
# Test system: HeLa cells
# Assay: Cytotoxicity by bioimpedance measurement
# Set-up: species or system human
compound,measurement,value
NCCCC[C@H](NC(=O)[C@H](Cc1ccc(O)cc1)NC(=O)[C@@H](N)Cc1c[nH]c2ccccc12)C(=O)N[C@@H](Cc1ccc(O)cc1)C(=O)N[C@@H](Cc1c[nH]c2ccccc12)C(N)=O [WYKYW],signs of cytotoxicity during the cell-based experiments,no signs of cytotoxicity
